Data: BindingDB's records for doi:10.1021/jm9708341 (University of Leipzig, 1998)

Target: T1, Neutrophil elastase (Homo sapiens, UniProt P08246)
T1 sequence (P08246 whole entry): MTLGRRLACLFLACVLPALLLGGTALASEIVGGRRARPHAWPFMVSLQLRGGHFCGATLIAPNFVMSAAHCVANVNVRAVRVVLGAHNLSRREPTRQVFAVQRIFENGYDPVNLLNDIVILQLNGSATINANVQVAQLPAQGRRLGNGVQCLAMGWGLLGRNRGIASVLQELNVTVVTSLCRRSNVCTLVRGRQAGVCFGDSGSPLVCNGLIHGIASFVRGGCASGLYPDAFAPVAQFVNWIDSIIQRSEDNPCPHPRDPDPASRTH
Test: Steady state inhibition constant for Human Leukocyte Elastase inhibition
Settings: for kon: read-out: kon (M-1-s-1)
Outline: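 Progress-curve assay at 25 °C with HLE purified from human leukocytes, in 50 mM sodium phosphate, 500 mM NaCl, pH 7.8. Substrate was MeOSuc-Ala-Ala-Pro-Val-pNA (200 μM final, 405 nm, 30–75 min) or, for a few inhibitors, Suc-Ala-Ala-Pro-Val-AMC (125 μM final, ex 340/em 460 nm, 4–5 min). At least five inhibitor concentrations were used, or 10 μM alone where solubility limited. Curves were fitted by slow-binding kinetics (k_obs = k_on'[I] + k_off).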

koff [s⁻¹]	kon [M⁻¹ s⁻¹]	Structure (SMILES)
0.00013	12200	CCOc1nc2sc(C)c(C)c2c(=O)o1 [2-Ethoxy-5,6-dimethyl-thieno[2,3-d][1,3]oxazin-4-one]
0.000429	76400	CCOc1nc2scc(C(C)C)c2c(=O)o1 [2-Ethoxy-5-isopropyl-thieno[2,3-d][1,3]oxazin-4-one]
0.00358	1.31e+06	CCSc1nc2sc(C)c(C)c2c(=O)o1 [2-Ethylsulfanyl-5,6-dimethyl-thieno[2,3-d][1,3]oxazin-4-one]
0.000142	99300	CCCOc1nc2sc3c(c2c(=O)o1)CCCC3 [2-Propoxy-5,6,7,8-tetrahydro-benzo[4,5]thieno[2,3-d][1,3]oxazin-4-one]
0.000567	16200	CSc1nc2sc(C)c(C)c2c(=O)o1 [5,6-Dimethyl-2-methylsulfanyl-thieno[2,3-d][1,3]oxazin-4-one]
6.28e-05	15600	CCCOc1nc2sc(C)c(C)c2c(=O)o1 [5,6-Dimethyl-2-propoxy-thieno[2,3-d][1,3]oxazin-4-one]

Continued, molecule first:

Structure (SMILES)	koff [s⁻¹]	kon [M⁻¹ s⁻¹]
O=c1oc(SCc2ccccc2)nc2sc3c(c12)CCCC3 [2-Benzylsulfanyl-5,6,7,8-tetrahydro-benzo[4,5]thieno[2,3-d][1,3]oxazin-4-one]	6.92e-05	239
Cc1sc2nc(SCc3ccccc3)oc(=O)c2c1C [2-Benzylsulfanyl-5,6-dimethyl-thieno[2,3-d][1,3]oxazin-4-one]	0.000358	3540
CCN(CC)c1nc2sc3c(c2c(=O)o1)CCCC3 [2-Diethylamino-5,6,7,8-tetrahydro-benzo[4,5]thieno[2,3-d][1,3]oxazin-4-one]	6.12e-05	3750
CCOc1nc2sc3c(c2c(=O)o1)CCCC3 [2-Ethoxy-5,6,7,8-tetrahydro-benzo[4,5]thieno[2,3-d][1,3]oxazin-4-one]	0.000127	93600
CC(C)COc1nc2sc3c(c2c(=O)o1)CCCC3 [2-Isobutoxy-5,6,7,8-tetrahydro-benzo[4,5]thieno[2,3-d][1,3]oxazin-4-one]	5.15e-05	1010
Cc1sc2nc(OCC(C)C)oc(=O)c2c1C [2-Isobutoxy-5,6-dimethyl-thieno[2,3-d][1,3]oxazin-4-one]	2.92e-05	219
CC(C)Nc1nc2sccc2c(=O)o1 [2-Isopropylamino-thieno[2,3-d][1,3]oxazin-4-one]	0.000134	3200
CC(C)Nc1nc2sc3c(c2c(=O)o1)CCCC3 [2-isopropylamino-5,6,7,8-tetrahydro-benzo[4,5]thieno[2,3-d][1,3]oxazin-4-one]	0.000201	1390
COC(=O)CSc1nc2sc3c(c2c(=O)o1)CCCC3 [(4-Oxo-5,6,7,8-tetrahydro-4H-benzo[4,5]thieno[2,3-d][1,3]oxazin-2-ylsulfanyl)-acetic acid methyl ester]	2.92e-05	1630
